What was measured:
Recombinant human LOXL2 = Recombinant human LOXL2 (Homo sapiens, UniProt Q9Y4K0); assay: Standard Amplex Red assay, rh LOXL2 (putrescine substrate); conditions: read-out: Recombinant human LOXL2 IC50, 30 min pre-incubation
Source text: (§1) FIGURE 1 Characteristics of the activity‐based probe (ABP) PXS‐5878. (A) Chemical structure of PXS‐5878, with functional subunits denoted with different colours. The fluoroallylamine moiety (blue) was designed to interact with the lysine tyrosylquinone (LTQ) co‐factor within the lysyl oxidase active sites. An extended linker (green) was incorporated to provide optimal separation between the reactive functional group and the tag, avoiding unfavourable steric hindrance. Biotin was selected as a tag, with higher sensitivity found to be achieved using a double tag (red), resulting in PXS‐5878 as the preferred ABP. (B) Concentration‐dependent inhibition of recombinant human (rh) lysyl oxidase‐like 1‐4 (LOXL1‐4) and native bovine LOX in a standard Amplex Red assay with 30 min pre‐incubation; n = 3–4 independent experiments, standard error of mean (SEM). Native bovine LOX was used as a surrogate for human LOX as both enzymes have similar pharmacology for fluoroallylamines.[2], [9] (C) Irreversible nature of PXS‐5878 enzyme inhibition confirmed using a jump dilution assay. […]
(§2) FIGURE 2 Characteristics of PXS‐5338 and inhibition of lysyl oxidase‐like 2 (LOXL2) enzymatic activity in vitro and in vivo. […] (B) Tissue levels of PXS‐5338 measured 1 and 4 h after a single oral dose of 30 mg/kg in the rat. […]

Sequences of proteins named here, by UniProt entry; tags and fusion partners are left off. Residues count along the entry.
UniProt Q9Y4K0, 26-774 limits assumed: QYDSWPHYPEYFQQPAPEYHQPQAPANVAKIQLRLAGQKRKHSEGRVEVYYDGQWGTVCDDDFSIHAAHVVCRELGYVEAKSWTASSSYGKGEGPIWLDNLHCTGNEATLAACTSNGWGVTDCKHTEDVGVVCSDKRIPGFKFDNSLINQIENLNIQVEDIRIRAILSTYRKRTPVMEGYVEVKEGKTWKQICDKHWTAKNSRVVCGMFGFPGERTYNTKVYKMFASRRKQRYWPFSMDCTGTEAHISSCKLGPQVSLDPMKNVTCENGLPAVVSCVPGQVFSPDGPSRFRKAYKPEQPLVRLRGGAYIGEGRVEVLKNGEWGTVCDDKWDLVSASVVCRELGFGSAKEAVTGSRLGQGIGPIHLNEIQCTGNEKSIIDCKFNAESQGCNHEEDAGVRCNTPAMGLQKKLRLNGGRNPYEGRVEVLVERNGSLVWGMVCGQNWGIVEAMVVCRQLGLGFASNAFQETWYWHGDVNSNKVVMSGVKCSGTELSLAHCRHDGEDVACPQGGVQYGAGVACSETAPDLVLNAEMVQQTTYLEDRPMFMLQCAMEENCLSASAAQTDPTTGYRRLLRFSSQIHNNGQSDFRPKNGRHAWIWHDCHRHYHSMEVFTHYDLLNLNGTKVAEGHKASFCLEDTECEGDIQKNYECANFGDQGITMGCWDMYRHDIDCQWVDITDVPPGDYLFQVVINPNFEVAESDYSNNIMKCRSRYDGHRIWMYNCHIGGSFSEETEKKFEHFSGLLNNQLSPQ
UniProt P58215, 26-753 limits assumed: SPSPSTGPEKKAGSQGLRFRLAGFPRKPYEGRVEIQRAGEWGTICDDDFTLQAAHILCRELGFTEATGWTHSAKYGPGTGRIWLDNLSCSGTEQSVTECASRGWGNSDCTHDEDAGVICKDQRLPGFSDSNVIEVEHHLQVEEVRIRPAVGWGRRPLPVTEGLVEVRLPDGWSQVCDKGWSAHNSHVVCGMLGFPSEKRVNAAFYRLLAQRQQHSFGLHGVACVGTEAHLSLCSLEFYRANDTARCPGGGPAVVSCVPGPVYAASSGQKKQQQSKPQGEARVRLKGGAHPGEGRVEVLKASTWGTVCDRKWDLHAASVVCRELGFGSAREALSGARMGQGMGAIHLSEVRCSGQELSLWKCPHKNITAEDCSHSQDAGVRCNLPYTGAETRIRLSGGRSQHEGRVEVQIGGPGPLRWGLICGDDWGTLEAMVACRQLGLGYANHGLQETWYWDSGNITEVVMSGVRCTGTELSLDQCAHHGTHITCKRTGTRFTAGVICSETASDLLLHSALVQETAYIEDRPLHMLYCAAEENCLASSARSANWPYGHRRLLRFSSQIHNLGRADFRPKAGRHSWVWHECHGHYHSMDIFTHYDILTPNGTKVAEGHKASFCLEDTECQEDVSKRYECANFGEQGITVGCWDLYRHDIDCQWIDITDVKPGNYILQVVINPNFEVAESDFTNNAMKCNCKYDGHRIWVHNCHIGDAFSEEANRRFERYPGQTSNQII
UniProt Q08397, 96-574 limits assumed: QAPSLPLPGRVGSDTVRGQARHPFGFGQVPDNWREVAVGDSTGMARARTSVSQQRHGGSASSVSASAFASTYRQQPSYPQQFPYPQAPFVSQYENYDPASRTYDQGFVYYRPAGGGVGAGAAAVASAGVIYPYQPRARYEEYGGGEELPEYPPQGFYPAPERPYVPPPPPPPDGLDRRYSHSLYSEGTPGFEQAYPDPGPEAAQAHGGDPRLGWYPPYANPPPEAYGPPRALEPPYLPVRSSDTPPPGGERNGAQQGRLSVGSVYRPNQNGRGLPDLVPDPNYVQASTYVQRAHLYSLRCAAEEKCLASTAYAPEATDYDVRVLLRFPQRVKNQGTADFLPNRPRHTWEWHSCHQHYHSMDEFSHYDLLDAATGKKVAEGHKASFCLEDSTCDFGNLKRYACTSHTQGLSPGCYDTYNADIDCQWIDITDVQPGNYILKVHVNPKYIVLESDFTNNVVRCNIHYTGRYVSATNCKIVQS

LOXL3 [1] = target: T1, LOXL3 (Homo sapiens, UniProt P58215); assay: Jump dilution assay, LOXL3; conditions: 10 × IC50 for 30 min, diluted 100x
Source text: (§3) FIGURE 1 Characteristics of the activity‐based probe (ABP) PXS‐5878. (A) Chemical structure of PXS‐5878, with functional subunits denoted with different colours. The fluoroallylamine moiety (blue) was designed to interact with the lysine tyrosylquinone (LTQ) co‐factor within the lysyl oxidase active sites. An extended linker (green) was incorporated to provide optimal separation between the reactive functional group and the tag, avoiding unfavourable steric hindrance. Biotin was selected as a tag, with higher sensitivity found to be achieved using a double tag (red), resulting in PXS‐5878 as the preferred ABP. (B) Concentration‐dependent inhibition of recombinant human (rh) lysyl oxidase‐like 1‐4 (LOXL1‐4) and native bovine LOX in a standard Amplex Red assay with 30 min pre‐incubation; n = 3–4 independent experiments, standard error of mean (SEM). Native bovine LOX was used as a surrogate for human LOX as both enzymes have similar pharmacology for fluoroallylamines.[2], [9] (C) Irreversible nature of PXS‐5878 enzyme inhibition confirmed using a jump dilution assay. Enzyme (rh LOXL1, rh LOXL2 or LOXL3) was pre‐incubated with 10 × IC50 of PXS‐5878 for 30 min, then diluted 100x and remaining activity assessed by Amplex Red assay. […] Each value is an average of three experiments. […]

Recombinant human LOXL1 = Recombinant human LOXL1 (Homo sapiens, UniProt Q08397); assay: Standard Amplex Red assay, rh LOXL1; conditions: read-out: Recombinant human LOXL1 IC50, 30 min pre-incubation
Source text: as §1, §2

LOXL3 [2] = target: T1, LOXL3; assay: Standard Amplex Red assay, rh LOXL3; conditions: read-out: Recombinant human LOXL3 IC50, 30 min pre-incubation
Source text: as §1, §2

rh LOXL1 = rh LOXL1 (Homo sapiens, UniProt Q08397); assay: Jump dilution assay, rh LOXL1; conditions: 10 × IC50 for 30 min, diluted 100x
Source text: as §3

rh LOXL2 = rh LOXL2 (Homo sapiens, UniProt Q9Y4K0); assay: Jump dilution assay, rh LOXL2; conditions: 10 × IC50 for 30 min, diluted 100x
Source text: as §1, with “[9]” for “[9] (C) Irreversible nature of PXS‐5878 enzyme inhibition confirmed using a jump dilution assay.”
For fluoroallylamine-based inhibitors, replacement of fluorine with hydrogen (leading to the corresponding des-fluoro structures) results in a drop in potency and a switch from irreversible to reversible inhibition. […] (B) For PXS-5878, removal of the fluoro moiety in a simplified analogue results in a significant drop in potency for LOXL2, meaning (ir)reversibility cannot be accurately measured.

Compound	IC50 (Recombinant human LOXL2) [µM]	Recovery of enzyme activity after jump dilution (LOXL3 [1])	IC50 (Recombinant human LOXL1) [µM]	IC50 (LOXL3 [2]) [µM]	Recovery of enzyme activity after jump dilution (rh LOXL1)	Recovery of enzyme activity after jump dilution (rh LOXL2)
NC/C=C/CS(=O)(=O)c1ccccc1	8					
Cc1c(-c2cccc(S(=O)(=O)N(C)C)c2)c2cc(C(=O)N(C)C)ccc2n1C/C=C/CN	0.464	enzyme activity almost fully recovered	2.47	0.698	enzyme activity almost fully recovered	enzyme activity almost fully recovered

— publication PMC8571951, “An activity‐based bioprobe differentiates a novel small molecule inhibitor from a LOXL2 antibody and provides renewed promise for anti‐fibrotic therapeutic strategies” (Clinical and Translational Medicine, 2021)
